{"sequences": {"note": "By UniProt entry, the sequences of proteins in these tests, tags left out. Where a name states a change or a piece, a line headed by the entry shows the natural chain unless it says otherwise.", "UniProt Q9UBN7": "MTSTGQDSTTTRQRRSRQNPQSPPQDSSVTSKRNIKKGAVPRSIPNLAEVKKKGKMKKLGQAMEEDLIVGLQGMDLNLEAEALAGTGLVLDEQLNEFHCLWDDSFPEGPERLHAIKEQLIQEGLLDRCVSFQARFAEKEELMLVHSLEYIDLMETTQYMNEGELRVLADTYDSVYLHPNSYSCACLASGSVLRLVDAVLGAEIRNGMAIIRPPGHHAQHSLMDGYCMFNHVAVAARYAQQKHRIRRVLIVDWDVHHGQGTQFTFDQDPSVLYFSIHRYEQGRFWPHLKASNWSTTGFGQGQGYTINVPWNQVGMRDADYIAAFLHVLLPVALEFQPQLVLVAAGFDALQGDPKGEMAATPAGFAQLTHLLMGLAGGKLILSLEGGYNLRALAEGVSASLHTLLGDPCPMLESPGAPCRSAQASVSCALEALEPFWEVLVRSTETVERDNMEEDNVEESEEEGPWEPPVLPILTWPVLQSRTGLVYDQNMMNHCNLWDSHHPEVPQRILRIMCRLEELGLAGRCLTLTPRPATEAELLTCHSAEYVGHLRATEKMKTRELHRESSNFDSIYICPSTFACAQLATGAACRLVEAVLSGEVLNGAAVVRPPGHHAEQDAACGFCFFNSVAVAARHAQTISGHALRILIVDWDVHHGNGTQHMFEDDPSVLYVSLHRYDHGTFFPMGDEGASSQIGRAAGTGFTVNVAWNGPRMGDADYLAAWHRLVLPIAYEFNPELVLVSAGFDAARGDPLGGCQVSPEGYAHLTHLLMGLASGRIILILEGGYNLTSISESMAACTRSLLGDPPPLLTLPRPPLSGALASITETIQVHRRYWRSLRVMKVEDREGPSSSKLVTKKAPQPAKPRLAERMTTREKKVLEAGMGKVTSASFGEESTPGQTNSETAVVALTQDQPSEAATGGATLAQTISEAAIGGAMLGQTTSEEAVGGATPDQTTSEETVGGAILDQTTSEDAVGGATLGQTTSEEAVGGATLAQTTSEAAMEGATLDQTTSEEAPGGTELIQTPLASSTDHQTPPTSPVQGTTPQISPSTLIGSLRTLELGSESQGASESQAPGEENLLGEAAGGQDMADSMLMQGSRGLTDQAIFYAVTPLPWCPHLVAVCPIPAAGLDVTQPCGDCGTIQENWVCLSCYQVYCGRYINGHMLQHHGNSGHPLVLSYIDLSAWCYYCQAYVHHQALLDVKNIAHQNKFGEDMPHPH"}, "source": "BindingDB's records for 34648286", "about": "“Structure-Activity Relationship of USP5 Inhibitors” (2021)", "biological_target": "Histone deacetylase 6 (Homo sapiens, UniProt Q9UBN7)", "data": [{"molecule": "O=C(O)CNC(=O)c1ccc(S(=O)(=O)N2CCC(N3C(=O)Cc4ccccc43)CC2)cc1", "values": [{"measurement": "Kd", "value": "> 480", "unit": "µM"}]}]}
